“And” between values parts separate entries of the source, which are not always exact repeats. Equal entries are not always repeated. Structures can show the parent of a compound that is named as a salt.
What was measured:
PP2Aa–STRN3 interaction = PP2Aa–STRN3 interaction (Homo sapiens, UniProt P30153); assay: Second-round validation AlphaScreen, PP2Aa–STRN3 disruption (Table S2); assay type: binding; parameters: GST; SUMO; made in house; host or cells: E. coli BL21 Codon plus (DE3); conditions: 2nd round validation screen
[1] = Second-round AlphaScreen false-positive control with biotin-labeled and His-tagged STRN3 (Table S2)
[2] = Second-round AlphaScreen false-positive control (Table S4); conditions: 2nd round validation screen, STRN3-MST2; disruption of protein-bead interactions
[3] = 2nd round validation screen, STRN3-PP2Aa, disruption of protein-bead interactions

The chains behind the UniProt entries cited, without tags or fusion partners. Residues count along the entry.
UniProt P30153, 8-589: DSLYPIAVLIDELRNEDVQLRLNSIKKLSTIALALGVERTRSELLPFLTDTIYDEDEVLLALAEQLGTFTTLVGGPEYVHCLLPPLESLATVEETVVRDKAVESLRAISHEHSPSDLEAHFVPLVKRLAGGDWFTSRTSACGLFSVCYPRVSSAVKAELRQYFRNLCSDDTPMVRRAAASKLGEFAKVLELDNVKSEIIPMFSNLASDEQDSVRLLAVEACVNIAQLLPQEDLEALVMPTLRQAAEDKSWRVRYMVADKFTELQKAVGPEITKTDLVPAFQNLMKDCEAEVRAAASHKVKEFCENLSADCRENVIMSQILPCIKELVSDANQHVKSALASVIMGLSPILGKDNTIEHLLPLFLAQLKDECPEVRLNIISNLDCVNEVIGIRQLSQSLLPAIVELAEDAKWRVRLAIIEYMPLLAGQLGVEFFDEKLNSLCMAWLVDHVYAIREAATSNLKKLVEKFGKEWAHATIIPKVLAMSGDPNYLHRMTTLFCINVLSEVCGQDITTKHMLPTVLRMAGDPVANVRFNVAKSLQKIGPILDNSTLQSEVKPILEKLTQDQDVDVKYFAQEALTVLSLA

| Compound | Inhibition rate (%) (PP2Aa–STRN3 interaction) | False positive rate (%) [1, 3] | False positive rate (%) [1] [%] | False positive rate (%) [2] [%] |
| --- | --- | --- | --- | --- |
| CCN(c1cc(C#CCN2CCOCC2)cc(C(=O)NCc2c(C)cc(C)[nH]c2=O)c1C)[C@H]1CC[C@H](N(C)CCOC)CC1 [EPZ011989] | 6.841% | 4.933% | – | – |
| CCN(CC)C(=S)SSC(=S)N(CC)CC [DSF, disulfiram] | 73.2412% | 31.6% | – | – |
| Oc1cc2c(cc1O)C1c3ccc(O)c(O)c3OCC1(O)C2 (stereo not shown) [HAEMATOXYLIN] | 74.6512% | 31.7503% | – | – |
| COc1cccc(NCC(F)Cn2c3ccc(Br)cc3c3cc(Br)ccc32)c1 (stereo not shown) [P7C3-A20] | 22.2055% | – | – | – |
| CNC(=O)c1ccccc1Nc1nc(Nc2ccc(N3CCOCC3)cc2OC)ncc1Cl [TAE-226] | 28.5479% | – | – | – |
| Chlorophyllin | 68.6366% | 67.5653% | – | – |
| CCN(CCO)CCCOc1ccc2c(Nc3cc(CC(=O)Nc4cccc(F)c4)n[nH]3)ncnc2c1 [AZD1152HQPA] | 15.3585% | 7.562% | – | – |
| COc1ccc(N(C(=O)Oc2c(C)cccc2C)c2ccnc(Nc3ccc(N4CCN(C)CC4)cc3)n2)c(OC)c1 [WH-4-023] | 34.4064% | – | – | – |
| O=C(O[C@@H]1Cc2c(O)cc(O)cc2O[C@@H]1c1cc(O)c(O)c(O)c1)c1cc(O)c(O)c(O)c1 [EPIGALLOCATECHIN-3-MONOGALLATE] | 72.0758% | 62.6993% | – | – |
| O=C1c2c(O)ccc(O)c2C(=O)c2c(NCCNCCO)ccc(NCCNCCO)c21 [Mitoxantrone HCl] | 90.5827% | – | – | – |
| COc1ccc(C(=C2C(=O)Nc3ccccc32)c2ccc(OC)cc2)cc1 [TAS-301] | 39.3492% | – | – | – |
| O=C([O-])c1ccccc1[O-].[Bi+3].[OH-] [Bismuth subsalicylat] | 15.8787% | -5.993% | – | – |
| CCN1c2cc(N)ccc2-c2ccc(N)cc2C1c1ccccc1 (stereo not shown) [Dihydroethidium] | 80.6971% | 78.082% | – | – |
| CC(C)OC(=O)[C@H](C)N[P@](=O)(CO[C@H](C)Cn1cnc2c(N)ncnc21)Oc1ccccc1 [GS-7340 Tenofovir alafenamide, Tenofovir alafenamide] | 4.026% | – | 2.988 | – |
| O=C(/C=C/c1ccc2ccccc2n1)c1ccncc1 [PFK-015] | 5.405% | – | – | – |
| COc1ccc(C(=O)O[C@H]2CC[C@@]3(C)[C@@H]4CC[C@H]5[C@]6(O)C[C@H](O)[C@@]7(O)[C@@H](CN8C[C@@H](C)CC[C@H]8[C@@]7(C)O)[C@]6(O)C[C@@]53O[C@]24O)cc1OC [Veratridine] | 73.6887% | – | – | – |
| NNc1nncc2ccccc12 [Hydralazine HCl] | – | – | – | 58.8651 |
| COc1cc(-c2ccc(N=Nc3ccc4c(S(=O)(=O)[O-])cc(S(=O)(=O)[O-])c(N)c4c3O)c(OC)c2)ccc1N=Nc1ccc2c(S(=O)(=O)[O-])cc(S(=O)(=O)[O-])c(N)c2c1O.[Na+].[Na+].[Na+].[Na+] [CHICAGO SKY BLUE 6B] | 96.9459% | 90.126% | – | – |
| 6-BIO | 82.3828% | – | – | – |
| OC(CNc1ccccc1)Cn1c2ccc(Br)cc2c2cc(Br)ccc21 (stereo not shown) [P7C3] | 35.8997% | – | – | – |
| O=C([O-])c1ccccc1-c1c2cc(Br)c(=O)cc-2oc2[c]([Hg+])c([O-])c(Br)cc12.[Na+].[Na+].[OH-] [Merbromin] | 77.9083% | – | – | – |
| CC(=O)[O][Hg][c]1ccccc1 [Phenylmercuric acetate] | 95.0884% | – | -7.3867 | – |

Continued, in another order:

| Inhibition rate (%) (PP2Aa–STRN3 interaction) | Compound | False positive rate (%) [1, 3] | False positive rate (%) [1] [%] | False positive rate (%) [2] [%] |
| --- | --- | --- | --- | --- |
| -8.372% | CC(C)(O)CNc1nc(Nc2ccnc(C(F)(F)F)c2)nc(-c2cccc(C(F)(F)F)n2)n1 [Enasidenib] | -5.133% | – | – |
| 92.6795% and 88.283% | Glycerite | 69.5101% and 67.0896% | – | – |
| 57.2242% | O=c1c2ccccc2[se]n1-c1ccccc1 [Ebselen] | -8.079% | – | – |
| 56.3097% | COc1cc2c(NC3CCN(CC4CCCCC4)CC3)nc(N3CCCN(C(C)C)CC3)nc2cc1OCCCN1CCCCC1 [UNC0631] | -14.7734% | – | – |
| 7.949% | Cc1ccccc1C(=O)Nc1ccc(C(=O)N2CCCC(O)c3cc(Cl)ccc32)c(C)c1 (stereo not shown) [Tolvaptan] | 11.1343% | – | – |
| 64.6668% | COc1cc(N2CCC(N3CCN(C)CC3)CC2)ccc1Nc1ncc(Cl)c(Nc2ccccc2S(=O)(=O)C(C)C)n1 [TAE684 (NVP-TAE684), TAE684] | 55.1957% | – | – |
| 84.0217% | Cc1cc(-c2ccc(/N=N/c3ccc4c(S(=O)(=O)O)cc(S(=O)(=O)O)c(N)c4c3O)c(C)c2)ccc1/N=N/c1ccc2c(S(=O)(=O)O)cc(S(=O)(=O)O)c(N)c2c1O [Evans blue] | 75.2692% | – | – |
| 2.039% | COc1cc2c(Nc3ccc(Br)cc3F)ncnc2cc1OCC1CCN(C)CC1 [Vandetanib (ZD6474), Vandetanib] | -3.172% | – | – |
| 5.296% | NCCOc1cc(C(=O)Nc2cc(OCCN)c3ccccc3n2)nc(C(=O)Nc2cc(OCCN)c3ccccc3n2)c1 [Pyridostatin] | 16.6764% | – | – |
| 40.7176% | COC(=O)C1=C(C)NC(C)=C(C(=O)OC(C)(C)CN(C)CCC(c2ccccc2)c2ccccc2)C1c1cccc([N+](=O)[O-])c1 (stereo not shown) [Lercanidipine] | 39.4625% | – | – |
| -1.182% | CCCOc1ccn2c(C(C)=O)cc(-c3ccccc3S(C)(=O)=O)c2c1 [GSK2801] | -9.031% | – | – |
| 92.1175% | O=[N+]([O-])c1ccc(O)c2ncccc12 [Nitroxoline] | 76.3709% | – | – |
| -1.473% | CC(=O)Oc1cc(C)c(OC(C)=O)c2ccccc12 [Menadiol Diacetate] | -3.581% | – | – |
| 61.1496% | COC(=O)/C=C/c1cccc(N(Cc2ccc(-c3ccc(N(C)C)cc3)cc2)C(=O)C2CCCCC2)c1 [fexaramine] | 58.3424% | – | – |
